Assay results: article PMC3581075 (Journal of pharmaceutical sciences, 2011)

What was measured:
[1] = tested on: human hepatocytes; conditions: eprosartan 10 μM, cryopreserved human hepatocytes, 10% serum; rifampin 10 μM
[2] = tested on: rat hepatocytes; conditions: 2 min, 10% serum, rifampin 10 μM

CO[C@H]1/C=C/O[C@@]2(C)Oc3c(C)c(O)c4c(O)c(c(/C=N/N5CCN(C)CC5)c(O)c4c3C2=O)NC(=O)/C(C)=C\C=C\[C@H](C)[C@H](O)[C@@H](C)[C@@H](O)[C@@H](C)[C@H](OC(C)=O)[C@@H]1C [rifampin]
Change of uptake of eprosartan in human hepatocytes compared to normal serum [1]: no significant changes
Decrease of uptake of losartan in rat hepatocytes compared to normal serum ([2]; losartan 10 μM, sulfaphenazole 1 μM): 66%
Change of uptake of propranolol in rat hepatocytes compared to normal serum ([2]; propranolol 10 μM, quinidine 30 μM): no significant differences
